This experiment has as its target T1, 6xHis-rMERTK(571–999), full-length human MERTK cytoplasmic domain (human, UniProt Q12866 571-999, autophosphorylated on tyrosine (incubated with ATP/MgCl2); sites Y749, Y753, Y754 were mapped on rMERTK571–864, not on this construct).
T1 construct: Expressed from the pET28a-LIC vector; also called MERTK intracellular domain; source: E. coli BL21 DE3 Gold, purified (Ni2+-NTA, Sephacryl S-200 HR), autophosphorylated with 10 mM ATP, 10 mM MgCl2
T1 sequence (looked up): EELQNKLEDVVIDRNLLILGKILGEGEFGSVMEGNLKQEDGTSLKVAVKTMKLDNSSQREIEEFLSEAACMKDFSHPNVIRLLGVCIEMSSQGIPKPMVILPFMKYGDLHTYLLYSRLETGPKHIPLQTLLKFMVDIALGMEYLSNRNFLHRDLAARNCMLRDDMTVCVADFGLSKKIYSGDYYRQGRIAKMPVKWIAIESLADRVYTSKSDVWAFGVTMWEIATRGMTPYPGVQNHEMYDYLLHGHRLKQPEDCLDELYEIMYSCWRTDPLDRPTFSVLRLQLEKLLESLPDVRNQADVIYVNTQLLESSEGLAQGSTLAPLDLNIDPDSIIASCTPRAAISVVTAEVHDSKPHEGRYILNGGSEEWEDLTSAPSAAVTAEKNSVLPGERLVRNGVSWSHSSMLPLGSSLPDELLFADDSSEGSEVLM
Briefly: pull-down; Ni2+-NTA pull down: GST-rSH2-domain protein (10 µg) incubated with autophosphorylated 6xHis-rMERTK571–999 (10 µg) in 50 mM NaH2PO4, 300 mM NaCl, 10 mM imidazole, 0.1 µM PMSF, 1 h at 4°C, then Ni2+-NTA resin 0.5 h; washes with 50 mM imidazole, elution with 500 mM imidazole; Coomassie-stained SDS gels; negative control omits rMERTK. To be noted: both partners purified.

B1: GRB2 GST-SH2 domain fusion protein (domain or fragment, human, UniProt P62993 60-152, looked up)
chain: WFFGKIPRAKAEEMLSKQRHDGAFLIRESESAPGDFSLSVKFGNDVQHFKVLRDGAGKYFLWVVKFNSLNELVDYHRSTSVSRNQQIFLRDIE
notes: pGEX2T construct from a library of SH2 domains; also called recombinant GRB2; rSH2-domain of GRB2; source: E. coli BL21 DE3 Gold, purified (glutathione-agarose, Sephacryl S-200 HR)
Take B1: the binding result is “binds”.

The values are drawn from PMC3563642, “MERTK Interactions with SH2-Domain Proteins in the Retinal Pigment Epithelium” (PLoS ONE, 2013).
